Laboratory results published in patent publication US8148058B2, “Method for screening allergic disease-related molecule and cell lines to be used in the method” (Tokyo University of Science Educational Foundation …, priority 2006, dated 2012).

What was measured:
Format in all cases: cell-based, mouse
[1] = test system: R cell; assay: Maintenance / growth potential of R cells in culture with cytokines or RCGF
Experimental: (§1) Further, anti-Thy1.2 antibodies (manufactured by Pharmingen) and complement (rabbit serum, manufactured by Pel-Freeze) were respectively added to the resulting culture at 1 μg/ml and at a final concentration of 10% by volume per 1×10^7 cells/100 μl. After about 30 minutes of reaction, […] therefrom and the cultivation was continued while the RCGF was added at various concentrations. Then cell lines according to the invention were obtained.
Thereafter, respective cell lines were cultured in accordance with the dilution method over the course of three weeks and cloned. R cells were cultured in an RPMI culture medium containing 10% by volume of serum which contained 25% by volume of RCGF (or a culture medium for R cells containing 5 ng/ml of IL-3) at 37° C. in 5% CO2 atmosphere and maintained. The R cells died when the RCGF and T cells were removed from the culture environment.

[2] = test system: N62.5 cells; assay: Proliferation of N62.5 cells, 3H-thymidine uptake; conditions: various concentrations; 48 hours culture, then 12 hours 3H-thymidine
Experimental: (§2) R cells, N62.5 cells, or RCCM cells obtained in Example 1 were placed in each well of a 96-well microplate at a seeding density of 1.5×10^4 cells/well. A culture medium in which the content of RCGF was changed was used and the sensitivities of the cells to RCGF were confirmed.
(§3) The concentrations of RCGF were set to 10 v/v %, 0.1 v/v %, and 0 v/v %. The cells were cultured in an RPMI 1640 culture medium containing 10% by volume of serum at 37° C. in 5% CO2 atmosphere for 48 hours. Thereafter, ^3H-thymidine was added to the culture medium so as to give a final concentration of 0.5 μCi/ml, and the resultant was further cultured for 12 hours and the uptake amount of ^3H during the time was measured. After the reaction, the uptake amount of ^3H-thymidine was measured using MicroBeta TRIL UX (manufactured by WALLAC). In FIGS. 1 (A) to (C), black rhombuses indicate RCCM cells, black squares indicate R cells, and black triangles indicate N62.5 cells. […]
(§4) Culture media containing various recombinant cytokines (IL-3 [manufactured by PeproTech]) and IL-4 [manufactured by PeproTech] were added to each well, and cultured at 37° C. in 5% CO2 atmosphere for 48 hours. […] Thereafter, ^3H-thymidine was added to the culture medium so as to give a final concentration of 0.5 μCi/ml, and the resultant was further cultured for 12 hours and the uptake amount of ^3H during the time was measured. […]

[3] = test system: N62.5 cell; assay: Maintenance of N62.5 cells in culture with cytokines or RCGF; conditions: cytokine in culture medium
Experimental: as §1

[4] = test system: RCCM cells; assay: Proliferation of RCCM cells, 3H-thymidine uptake; conditions: various concentrations; 48 hours culture, then 12 hours 3H-thymidine
Experimental: as §2, §3, §4

IL-2: cytokine
sensitivity / growth potential of R cell against cytokine [1]: does not show sensitivity

B1: IL-3: recombinant cytokine, manufactured by PeproTech (protein, UniProt P08700 20-152, looked up)
Interleukin-3: APMTQTTPLKTSWVNCSNMIDEIITHLKQPPLPLLDFNNLNGEDQDILMENNLRRPNLEAFNRAVKSLQNASAIESILKNLLPCLPLATAAPTRHPIHIKDGDWNEFRRKLTFYLKTLENAQAQQTTLSLAIF
sensitivity / growth potential of R cell against cytokine [1]: high growth potential | concentration at which an R cell can be maintained ([1]; cytokine in culture medium): about 5 ng/ml | proliferative response of N62.5 cells to RCGF / cytokines (uptake amount of 3H-thymidine) [2]: showed proliferative activity | concentration at which an N62.5 cell can be maintained [3]: about 20 ng/ml | proliferative response of RCCM cells to RCGF / cytokines (uptake amount of 3H-thymidine) [4]: no difference in growth potential
